Laboratory results reported in US11883419B2, “DNA polymerase gamma inhibitor and uses thereof” (ACIBADEM MEHMET ALI AYDINLAR UNIVERSITESI, priority 2018, dated 2024).

Tests used:
Lovo = conditions: 20 μM and 50 μM, 48 h
SW48 = conditions: SW48, 20 μM and 50 μM, 48 h
HCT116 = assay: cells; conditions: Homo sapiens, HCT-116, 48 h, read-out: Inhibition of cell proliferation

**Q.** What does the source list for `Nc1c(/N=N/c2ccc(-c3ccc(/N=N/c4cc(S(=O)(=O)O)c5ccccc5c4N)cc3)cc2)cc(S(=O)(=O)O)c2ccccc12` [Formula II]?
**A.** Inhibition of cell proliferation (Lovo): did not inhibit; Inhibition of cell proliferation (SW48): did not inhibit; inhibition at 20 µM (HCT116): 35%; inhibition at 50 µM (HCT116): 50%
